Curated experimental data: properties

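OPERA's authors assembled the values from existing databases and did not measure them anew. The files give a single number for a compound and property, which may rest on several reports. How each value was measured is not recorded, so precision varies. Where a salt, mixture or single isomer is drawn, the source does not say that exactly this form was tested. Unmarked limits or estimates from the upstream databases cannot be ruled out.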

The melting point is given in degrees Celsius.
The boiling point refers to atmospheric pressure (760 mmHg), by the definition of the set.
logP is the log10 of the octanol-water partition coefficient; higher is more lipophilic.
Solubility in water is on a log10 molar scale (set defined at 25 °C).
Vapor pressures (log10 mmHg) refer to near room temperature, 15 to 30 °C; higher is more volatile.
Cells with "n/a" have no entry in this list.

| SMILES | name | mp (°C) | BP (°C) | log Kow | log solubility (log10 mol/L) | log VP (log10 mmHg) |
|---|---|---|---|---|---|---|
| S=C(SSSSSSC(=S)N1CCCCC1)N1CCCCC1 | Bis(1-piperidinylthioxomethyl)hexasulfide | 122.3 | n/a | n/a | -7.632 | n/a |
| COC(=O)C(C)(C)c1ccc(Br)cc1 | METHYL 2-(4-BROMOPHENYL)-2,2-DIMETHYLACETATE | n/a | n/a | 3.73 | -3.777 | n/a |
| CC(=O)OC(C)c1ccccc1 (racemic) | n/a | n/a | 224.9 | n/a | n/a | -1.385 |
| CC(C)=CCCC(C)CC=O (stereo unspecified) | Citronellal | n/a | n/a | n/a | -3.244 | -0.815 |
| O=Cc1ccc(B(O)O)cc1 | 4-Formylphenylboronic acid | n/a | n/a | 1.36 | -2.267 | -6.606 |
| Cn1[nH]c(=O)c(=O)nc1SCC1=C(C(=O)O)N2C(=O)[C@@H](N)C2SC1 (stereo partly drawn) | n/a | 375 | n/a | n/a | -3.303 | n/a |
| FC(F)(F)COc1cccnc1Cl | 2-Chloro-3-(2,2,2-trifluoroethoxy)pyridine | 41.8 | 223 | 2.2 | -2.149 | -1.599 |
| [Mn+3].[O-]c1ccccc1/C=N/CCN(CC/N=C/c1ccccc1[O-])CC/N=C/c1ccccc1[O-] | n/a | 110 | n/a | n/a | n/a | -13.65 |
| c1ccc(CN2CCN(Cc3ccccc3)CCN(Cc3ccccc3)CCN(Cc3ccccc3)CC2)cc1 | 1,4,7,10-Tetrabenzyl-1,4,7,10-tetraazacyclododecane | n/a | n/a | 2 | -5.028 | n/a |
| CCOC(=O)/C=C(\NC)C(F)(F)F | Ethyl (2Z)-4,4,4-trifluoro-3-(methylamino)-2-butenoate | n/a | 171 | 3 | -2.948 | -0.023 |
| CC/C=C\CCOC(C)=O | (3Z)-3-Hexenyl acetate | n/a | n/a | n/a | -2.096 | 0.206 |
| CCCCC(CC)COCCCN (stereo unspecified) | 3-((2-Ethylhexyl)oxy)propylamine | -89.9 | n/a | 2.6 | n/a | n/a |
| CC(O)C(C)Cc1ccccc1 (stereo unspecified) | 3-Methyl-4-phenyl-2-butanol | n/a | n/a | 3.1 | -1.697 | -2.084 |
| CCCC1CCC(c2ccc(OCC)c(F)c2F)CC1 (stereo unspecified) | 1-Ethoxy-2,3-difluoro-4-(4-propylcyclohexyl)benzene | 60.6 | 337 | n/a | -6.337 | -5.952 |
| CCCCC(CC)COC(=O)c1cc(C(=O)OCC(CC)CCCC)c(C(=O)OCC(CC)CCCC)cc1C(=O)OCC(CC)CCCC (stereo unspecified) | n/a | -34 | n/a | 6.01 | n/a | n/a |
| N#Cc1ccccc1-c1ccc(CBr)cc1 | 4'-Bromomethyl-2-cyanobiphenyl | n/a | n/a | 3.2 | -6.657 | -2.974 |
| CCCCCCCCCCCCC1CC(=O)N(C2CC(C)(C)NC(C)(C)C2)C1=O (stereo unspecified) | n/a | n/a | n/a | n/a | -4.81 | -6.374 |
| Nc1cc(S(=O)(=O)O)c(Nc2ccc3c(c2S(=O)(=O)O)Oc2c(Cl)c4c(c(Cl)c2=N3)Oc2c(ccc(Nc3cc(S(=O)(=O)O)c(N)cc3S(=O)(=O)O)c2S(=O)(=O)O)N=4)cc1S(=O)(=O)O | n/a | 323.7 | n/a | -2.335 | n/a | n/a |
| Cc1ccc(NC(=O)Nc2ccc(Cc3ccc(NC(=O)Nc4ccc(C)cc4)cc3)cc2)cc1 | n/a | 288 | n/a | 3.8 | -7.713 | n/a |
| CC1C(C)(C)C2=C(c3ncncc3CC2)C1(C)C (stereo unspecified) | n/a | 70.85 | 335 | n/a | -4.788 | -3.921 |
| CC(C)c1ccc2c(c1)OCC(=O)CO2 | 2H-1,5-Benzodioxepin-3(4H)-one, 7-(1-methylethyl)- | 35 | 267 | 2.46 | -1.906 | -2.874 |
| Nc1cc(Cl)c(Cl)cc1S(=O)(=O)O | Benzenesulfonic acid, 2-amino-4,5-dichloro- | n/a | n/a | -1 | -2.105 | n/a |
| C=C(C)C(=O)OCCOCCOCCCC | 2-(2-Butoxyethoxy)ethyl methacrylate | n/a | n/a | 3.015 | -1.985 | -2.62 |
| CCCCCCCCCOC(=O)c1ccc(C(=O)OCCCCCCCCC)c(C(=O)OCCCCCCCCC)c1 | Trinonyl benzene-1,2,4-tricarboxylate | 8.55 | n/a | n/a | -6.757 | -9.422 |
| O/N=C1\CCCC2=C1C1CCC2C1=C(Cl)Cl (stereo partly drawn) | n/a | 182.7 | n/a | 4.1 | -5.208 | -6.362 |
| CNC(=O)c1cc(Oc2ccc(N)cc2)ccn1 | 4-(4-Aminophenoxy)-N-methylpyridine-2-carboxamide | n/a | n/a | 0.9 | -2.394 | n/a |
| CC(O)CN(CC(C)O)C(=O)c1ccccc1 (stereo unspecified) | N,N-Bis(2-hydroxypropyl)benzamide | 77.45 | 308.4 | 0.23 | n/a | n/a |

4 of these entries, quoted again:

| SMILES | name | mp (°C) | BP (°C) | log Kow | log solubility (log10 mol/L) | log VP (log10 mmHg) |
|---|---|---|---|---|---|---|
| CNC(=O)c1cc(Oc2ccc(N)cc2)ccn1 | 4-(4-Aminophenoxy)-N-methylpyridine-2-carboxamide | n/a | n/a | 0.9 | -2.394 | n/a |
| CC(C)c1ccc2c(c1)OCC(=O)CO2 | 2H-1,5-Benzodioxepin-3(4H)-one, 7-(1-methylethyl)- | 35 | 267 | 2.46 | -1.906 | -2.874 |
| Cn1[nH]c(=O)c(=O)nc1SCC1=C(C(=O)O)N2C(=O)[C@@H](N)C2SC1 (stereo partly drawn) | n/a | 375 | n/a | n/a | -3.303 | n/a |
| CC(C)=CCCC(C)CC=O (stereo unspecified) | Citronellal | n/a | n/a | n/a | -3.244 | -0.815 |

Data: OPERA 2.9 data sets, kmansouri/OPERA on GitHub.